In ChEMBL document CHEMBL4831512 (J Med Chem, 2021) one finds IC50 data, which are given here for one molecule.

The chains behind the UniProt entries cited, without tags or fusion partners.
UniProt P42336, whole entry: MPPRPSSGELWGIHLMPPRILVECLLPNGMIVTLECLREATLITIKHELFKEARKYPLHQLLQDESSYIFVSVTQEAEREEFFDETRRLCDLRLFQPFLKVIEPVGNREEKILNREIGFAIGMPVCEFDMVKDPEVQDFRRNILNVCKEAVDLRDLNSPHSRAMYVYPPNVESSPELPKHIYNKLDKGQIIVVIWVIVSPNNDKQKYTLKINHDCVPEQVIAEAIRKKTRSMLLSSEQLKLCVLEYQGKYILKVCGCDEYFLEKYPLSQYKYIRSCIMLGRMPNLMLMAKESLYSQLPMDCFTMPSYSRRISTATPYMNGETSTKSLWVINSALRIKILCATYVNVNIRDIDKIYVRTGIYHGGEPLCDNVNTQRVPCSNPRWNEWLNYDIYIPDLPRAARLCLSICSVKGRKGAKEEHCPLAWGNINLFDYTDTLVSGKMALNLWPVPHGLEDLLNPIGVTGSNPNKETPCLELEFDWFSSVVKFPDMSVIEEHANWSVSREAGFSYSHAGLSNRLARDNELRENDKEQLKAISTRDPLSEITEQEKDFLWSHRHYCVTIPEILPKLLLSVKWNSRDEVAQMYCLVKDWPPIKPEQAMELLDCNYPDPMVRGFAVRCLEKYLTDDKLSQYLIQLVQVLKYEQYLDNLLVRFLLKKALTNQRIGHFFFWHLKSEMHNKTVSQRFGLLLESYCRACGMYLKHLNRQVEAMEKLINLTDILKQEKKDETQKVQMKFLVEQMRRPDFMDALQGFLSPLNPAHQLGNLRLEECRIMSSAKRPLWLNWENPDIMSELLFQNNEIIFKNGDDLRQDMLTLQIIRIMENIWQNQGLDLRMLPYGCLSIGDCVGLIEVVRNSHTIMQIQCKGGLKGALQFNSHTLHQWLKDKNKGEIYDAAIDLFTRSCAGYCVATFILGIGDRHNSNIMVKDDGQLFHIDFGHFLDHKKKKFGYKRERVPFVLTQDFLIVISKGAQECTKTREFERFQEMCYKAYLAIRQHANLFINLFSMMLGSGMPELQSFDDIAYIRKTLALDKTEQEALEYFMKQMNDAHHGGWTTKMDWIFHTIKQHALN

This assay has as its target Phosphatidylinositol 4,5-bisphosphate 3-kinase catalytic subunit alpha isoform (Homo sapiens, UniProt P42336). It counts as cell-based, Fibroblast.

Regarding `Cc1ncc(-c2cc(-c3cc(S(=O)(=O)NCC(C)(C)O)ccc3C)cnc2N)o1`, 6.25 µM corresponded to half-maximal inhibition (IC50).
